# Antibody variant affinities, Ab-95 light chain, assay 2

Values reported by Engelhart et al. 2022, doi:10.1038/s41597-022-01779-4 (FLAb copy).

Binding partner: SARS-CoV-2 spike HR2 peptide, sequence PDVDLGDISGINAS.

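Phage display of a naive human antibody library on the peptide gave the parent. Variants in AAYL52 differ from the parent at up to three CDR positions; double and triple changes were sampled at random. Affinity was read by AlphaSeq, a pooled yeast mating assay with surface-displayed partners. Binding brings cells together so that they mate, and sequencing counts the barcode pairs among the diploids. Each replicate has its own calibration line, from reference interactions of the BCL2 family. There are three technical replicates.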

Ab-95 is the parent antibody, in scFv form: VH, then a 15-residue (Gly4Ser)3 linker, then VL. The heavy chain is unchanged in all variants.
VH: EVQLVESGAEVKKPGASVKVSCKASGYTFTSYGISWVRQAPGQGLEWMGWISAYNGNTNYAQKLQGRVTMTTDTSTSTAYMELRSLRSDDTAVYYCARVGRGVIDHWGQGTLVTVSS
VL: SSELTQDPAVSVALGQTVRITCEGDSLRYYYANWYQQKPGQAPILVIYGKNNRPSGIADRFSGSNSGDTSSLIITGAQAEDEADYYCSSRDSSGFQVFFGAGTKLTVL

Each variant is given by its three light chain CDRs, as the data file delimits them; those of the parent are EGDSLRYYYAN, GKNNRPS, SSRDSSGFQVF.
Scale: log10 of Kd in nM, estimated from mating counts; low values are strong binders.
An entry "nd" has no value in the source: the pair was not observed among the diploids in that replicate. This suggests poor binding but is not conclusive.

Variant EGDSLRYYYAN | GKNNRGS | ESRNSSGFQVF showed 2.79, 3.31, 2.75 (controls 6 of 9).
Variant EGDSLRYYYAN | QKNNRPA | SSRYSSGFQVF showed 3.54, nd, nd (controls 2 of 9).
Variant EGDSLRYYYAN | GKNCEPS | SSRDSSGHQVF showed 4.04, 4.75, nd (controls 2 of 9).
Variant IGDSLRYYYAN | VKNNRPS | SSADSSGFQVF showed nd, nd, nd (controls 1 of 9).
Variant CYDSLRYYYAN | GKNNRPS | SSRDSSGFQVF showed 3.83, nd, 4.48 (controls 5 of 9).
Variant EGVSLTYFYAN | GKNNRPS | SSRDSSGFQVF showed 4.61, 3.17, 4.19 (controls 1 of 9).
Variant HGDSPRYYYAN | GKNNRPS | SSRDSSGFQVF showed 2.89, 2.77, 2.46 (controls 3 of 9).
Variant EDDWLRYYYAN | GKNNRPS | SSRDSSGFNVF showed 2.70, 4.27, 3.19 (controls 1 of 9).
Variant EGDSLRYYQAN | GKNNRPS | SSRDESGFTVF showed 2.23, 2.08, 1.90 (controls 1 of 9).
Variant EGDSLRYYIAN | GFNNRPS | SERDSSGFQVF showed 4.00, 4.20, 4.04 (controls 2 of 9).
Variant EGDALRYYYAN | GKNNRPS | SSRHPSGFQVF showed 3.16, 3.65, 3.65 (controls 4 of 9).
Variant EGDSLRYYYAN | GKNNRPS | CSRDKLGFQVF showed nd, nd, nd (controls 0 of 9).
Variant EGDSLRHYYAN | GKNNRES | SSRDSSGFQVW showed 3.19, 3.73, 2.64 (controls 1 of 9).
Variant EGDSWRYHYAN | GKNNRPS | SARDSSGFQVF showed 4.00, 2.89, nd (controls 3 of 9).
Variant AGDSLRYYYAN | GKNNRPS | SSRDQSGFQVF showed 1.75, 1.62, 1.58 (controls 6 of 9).

The remaining entries, values ahead:

2.95, nd, nd (controls 3 of 9): EGDSLMYYYAN | GKNNRPS | CSRDSSGFQHF.
4.66, nd, nd (controls 0 of 9): EGDSLRYYYAN | GKNNRPG | SSRDSSGFQVC.
3.82, 5.47, 3.35 (controls 6 of 9): EGDSSRYYYAN | GKNNRPS | SSRDHSGFQVW.
2.24, 2.32, 2.06 (controls 4 of 9): HGDSLRYYYAN | GKNVRSS | SSRDSSGFQVF.
nd, 3.72, nd (controls 1 of 9): EGDSLRYYYAN | LKNNRPS | SSKDNSGFQVF.
3.70, nd, nd (controls 1 of 9): EGVSLRYYYAN | GKNNWPS | SSRDSSGFQHF.
2.89, 3.67, 3.41 (controls 2 of 9): EGDSLRYYYAN | GKNNRLS | SSRDSMGEQVF.
2.92, 2.67, 2.73 (controls 3 of 9): EGDSLRYYYAN | GKNFRPS | SQRDSSGFQVF.
3.30, 2.86, 3.41 (controls 3 of 9): EGDSLRYYYAN | GKDNRPS | SAWDSSGFQVF.
3.13, 2.88, 3.58 (controls 3 of 9): EGGSLRYYYAN | GKNHRPL | SSRDSSGFQVF.
4.96, nd, nd (controls 0 of 9): EGDSLRYYYAA | GKTNRPS | SSRDSSGFQWF.
3.73, nd, 4.46 (controls 0 of 9): EGDSHRYYYCN | GKNNRPS | SSRDSSGFQVF.
nd, 4.53, nd (controls 3 of 9): EGDSLRYYYAN | GKNARPS | SSFDSSGFQVK.
1.36, 1.28, 0.85 (controls 1 of 9): EGDSLRYYYAN | GKNNRPS | SSRDQSGFYVG.
2.64, 2.24, 2.58 (controls 2 of 9): EGDSLHYKYAN | GKNNRPS | SHRDSSGFQVF.

Excerpt, the final 2 entries:

CDR-L1	CDR-L2	CDR-L3	log10 Kd (nM) by replicate	empty controls
EGDSLRYYYAN	GKNNRPS	SSRDQSGFYVG	1.36, 1.28, 0.85	1 of 9
EGDSLHYKYAN	GKNNRPS	SHRDSSGFQVF	2.64, 2.24, 2.58	2 of 9

As a blank, each scFv also met three strains without target: over library AAYL52, 28% of these pairings were detected, typically at 3.91 and seldom below 2.90. Also given: how often the same scFv was detected with the empty control strains.
Parent in this assay: reference entry 2.31, copy in this library 2.25.